The structures appear in SMILES notation.

By UniProt entry, the sequences of proteins in these tests, tags left out. Where a name states a change or a piece, a line headed by the entry shows the natural chain unless it says otherwise.
UniProt P30542, whole entry: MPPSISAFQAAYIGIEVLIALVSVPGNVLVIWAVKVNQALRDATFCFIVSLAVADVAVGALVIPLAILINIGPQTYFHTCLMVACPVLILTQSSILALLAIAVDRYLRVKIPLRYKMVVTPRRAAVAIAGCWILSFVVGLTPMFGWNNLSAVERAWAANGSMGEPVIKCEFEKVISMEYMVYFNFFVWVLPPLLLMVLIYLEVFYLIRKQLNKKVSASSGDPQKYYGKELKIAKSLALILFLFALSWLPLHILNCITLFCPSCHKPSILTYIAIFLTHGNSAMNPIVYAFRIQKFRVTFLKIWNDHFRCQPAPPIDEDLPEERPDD

The values that follow come from publication PMC12280925, “Structure-based discovery of positive allosteric modulators of the A1 adenosine receptor” (Proceedings of the National Academy of Sciences of the …, 2025).

The target in this assay is A1R (A1R-FlpInCHO cells) (Homo sapiens, UniProt P30542). The assay can be described thus: Inhibition of forskolin-stimulated cAMP accumulation: NECA potency ± compound and compound alone. In kind it is cell-based. As to conditions: 30 μM compound in the absence of NECA; for NECA: maximal response. The method, then: FlpInCHO cell lines and cortical neuron cells were seeded into transparent 96-well plates at 20,000 cells/well and incubated for 16 to 20 h in a humidified incubator at 37 °C in 5% CO2. […] Compounds were added at either a single concentration (10 or 30 μM) or a concentration range for full interaction studies (3 to 30 μM), and plates were incubated for 30 to 60 min at 37 °C in a humidified chamber. […] After 30 min incubation at 37 °C, the reaction was terminated by rapid removal of buffer and the addition of 50 μL/well cold ethanol. […] Agonist concentration–response curves were normalized to the response mediated by 3 µM forskolin […].
Response=Basal+Emax-Basal×A/EC50+A,
(In general: Changes in cAMP serve as a functional read-out for many G protein-coupled receptors.)

As to `CCNC(=O)[C@H]1O[C@@H](n2cnc3c(N)ncnc32)[C@H](O)[C@@H]1O` [NECA, 5′-N-ethylcarboxamidoadenosine, reference compound], the “inhibition of 3 μM forskolin-stimulated cAMP accumulation” value amounted to 103%.
